{"source": "patent US20090104257A1", "about": "(priority 2007, published 2009)", "assay": "Concentration of vancomycin in the lungs of mice after inhalation therapy (Example 8)", "conditions": "6 mg/kg inhaled, 4 days after inhalation therapy; listed as Soluble Vancomycin", "excerpt": "There were 5 groups and each group had 12 mice. […] Mice in group 5 received sterile normal saline (0.9% NaCl) by inhalation.", "note": "Where “and” joins values, the source holds several entries; their conditions need not be identical. Equal values may be shown once."}
{"smiles": "CN[C@H](CC(C)C)C(=O)N[C@H]1C(=O)N[C@@H](CC(N)=O)C(=O)N[C@H]2C(=O)N[C@H]3C(=O)N[C@H](C(=O)N[C@H](C(=O)O)c4cc(O)cc(O)c4-c4cc3ccc4O)[C@H](O)c3ccc(c(Cl)c3)Oc3cc2cc(c3O[C@@H]2O[C@H](CO)[C@@H](O)[C@H](O)[C@H]2O[C@H]2C[C@](C)(N)[C@H](O)[C@H](C)O2)Oc2ccc(cc2Cl)[C@H]1O", "note": "[Vancomycin, vancomycin]", "values": [{"measurement": "Vancomycin (μg/g), individual mice", "result": 54.9, "unit": "µg/g"}, {"measurement": "Vancomycin (μg/lung), individual mice", "result": "10.3 μg/lung and 11.2 μg/lung"}]}
